# Antibody variant affinities, Ab-14 heavy chain, assay 1

Antigen: PDVDLGDISGINAS, a 14-residue peptide of the SARS-CoV-2 spike HR2 region.

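The parent was found by panning a naive human phage display library on the peptide. In library AAYL49, one, two or three CDR residues were substituted; doubles and triples were drawn at random. Affinity was read by AlphaSeq, a pooled yeast mating assay with surface-displayed partners. Mating (16 h, 30 °C) was followed by selection of diploids and sequencing of their barcodes. Each replicate has its own calibration line, from reference interactions of the BCL2 family. Each pool was mated in three replicate cultures.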

Parent scFv Ab-14: VH joined to VL by the linker GGGGSGGGGSGGGGS. Changes lie in the heavy chain CDRs alone.
VH: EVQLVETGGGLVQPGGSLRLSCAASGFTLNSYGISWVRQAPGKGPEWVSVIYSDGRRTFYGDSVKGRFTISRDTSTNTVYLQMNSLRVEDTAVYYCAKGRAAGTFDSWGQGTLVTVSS
VL: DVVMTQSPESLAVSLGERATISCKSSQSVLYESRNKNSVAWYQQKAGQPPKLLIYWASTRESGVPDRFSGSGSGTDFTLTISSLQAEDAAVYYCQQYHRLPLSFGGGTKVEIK

Each variant is given by its three heavy chain CDRs, as the data file delimits them; those of the parent are GFTLNSYGIS, VIYSDGRRTFYGDSVK, GRAAGTFDS.
The Kd shown is the geometric mean over detected replicates; a lower Kd is a better binder.
An entry "no signal" has no value in the source: the pair was not observed among the diploids in any replicate. This suggests poor binding but is not conclusive.

CDR-H1,CDR-H2,CDR-H3,Kd,replicates with signal,empty controls
GFTLNSYGIS,VIYSDGRRTWYGDDVK,GRAAGTFDS,6.6 nM,3 of 3,2 of 9
TFTLNSYGIS,DIYSDGRRTFYGDSLK,GRAAGTFDS,no signal,0 of 3,2 of 9
GFTLNSYIIS,VIYSDGRRTFYGYSVK,GRAAGTFDT,no signal,0 of 3,0 of 9
GFTVNYYGIS,VISSDGRRTFYGDSVK,GRAAGTFDS,1.4 µM,1 of 3,2 of 9
GFTLNSVGIS,VIYSDGRRTFYFDSMK,GRAAGTFDS,64 nM,1 of 3,0 of 9
GFTLNSYGIS,VIYVDGRRTFYGDSVK,RRAAGTYDS,no signal,0 of 3,0 of 9
GFTLNSYGIS,QIYSDGRRTFMNDSVK,GRAAGTFDS,18 µM,2 of 3,4 of 9
GFTLNSYGAS,VIYSDGRRTFYGDSVK,GKAAGVFDS,190 µM,1 of 3,1 of 9
GFTLNHYGIF,VIYSDGRRTFYGDSVK,GRAKGTFDS,no signal,0 of 3,0 of 9
GFTLNSYGIS,VMYSDGRRTFYFDMVK,GRAAGTFDS,no signal,0 of 3,0 of 9
GFTLNSYFIS,VIYSDGRRTFGDDSVK,GRAAGTFDS,9.1 µM,2 of 3,3 of 9
GFTLNSIGIS,VEYSDGRRTFYGDSVK,GRAAHTFDS,no signal,0 of 3,0 of 9
GFTLNSYGIS,VIYSDGRRTFYGDSVD,LRAAGTFDI,no signal,0 of 3,0 of 9
GFTLNSYGIS,VIISDGRRTFYGDPVK,GRAAGHFDS,670 nM,2 of 3,1 of 9
GFTLNSYGIS,VIYSDGRQTFYGDSVK,GYAAGTFWS,no signal,0 of 3,0 of 9
GFTLNSYGIS,VIYSDGRRYFYGDSVK,GRVAYTFDS,12 µM,2 of 3,1 of 9
GFTLNMYGIS,VIYSDGRRTFYGDSVV,GRAWGTFDS,5.9 µM,1 of 3,3 of 9
GFTLNSYGIS,VQYSDGRRTFYGDSVK,LRAAGTFIS,63 µM,2 of 3,3 of 9
GFTLNSYGIS,VIYSTGRRTFPGDSVK,GRAAGTFDM,no signal,0 of 3,1 of 9
GFTLNSYGIS,VKYSDGRRTFYGDMVK,GRAAGTTDS,29 µM,2 of 3,1 of 9
GFTLNSYGIS,VIYSDGRRTFYGDHVK,GRAAWTFDS,38 nM,3 of 3,0 of 9
GATLNSYGIS,VIYSLGRRTRYGDSVK,GRAAGTFDS,no signal,0 of 3,1 of 9
GFTLNSYGIS,VIYSDGRRTFTGDSVK,GRAAGTRLS,2.1 µM,1 of 3,0 of 9
GFTLNSYGIS,VIYSDGRRTFYGDSVK,GMALGTDDS,no signal,0 of 3,2 of 9
GFTLNSYGIS,VIYSDGRRTFIGDSPI,GRAAGTFDS,1.6 mM,1 of 3,7 of 9
GFTLNSYGIS,VIYSDGRRDFYGDSVN,GRAAGTFKS,7.5 µM,1 of 3,2 of 9
GFTLNSYGIS,VIYSQGRRTFYGDSVK,GRAASTFDS,6.6 µM,3 of 3,1 of 9
GFTLNSYGIS,VIYSDGRRTFYGDSVK,FPAAGTFMS,no signal,0 of 3,1 of 9
GFTVNSYGIS,VIYSGFRRTFYGDSVK,GRAAGTFDS,no signal,0 of 3,0 of 9
GFTLNSYGIS,VPYSDSRRTFYGDSVK,GRAAGDFDS,13 µM,3 of 3,2 of 9
GFTLNSYGIS,VIYSDGRRTMYGGSVK,GSAAGTFDS,75 nM,3 of 3,0 of 9
LFTLNSYGIS,VIYSDGRETFYGDSVK,GRAAGTFIS,no signal,0 of 3,0 of 9
GFTLNSYGIS,VIKSDGRRTFYGDSAK,GRAASTFDS,no signal,0 of 3,3 of 9
GFTLNWYGIS,VIYSDGRRTFYGQSVK,GRAAATFDS,no signal,0 of 3,1 of 9
GFTLNSYGIS,VIYSDGRRTFYGTSVK,GRAAGCFDS,350 nM,3 of 3,0 of 9
GFTLNSYGIS,VIYSDGRRTFYGDSVV,GRAAGWKDS,5.3 µM,1 of 3,0 of 9
GFTLNSYGIS,VHYSDGRRTFYGDSQK,GRAAGTFDS,no signal,0 of 3,3 of 9
GFTLNSYGIS,VIYKDGRRTFYGDHVK,GRAAGAFDS,57 µM,1 of 3,3 of 9
SFTLNSYGIS,VIYSDFRRTFYGDSVK,GRAAGTFDS,21 µM,2 of 3,1 of 9
GFTLNSYGIS,VIYSDGRRTFYGDSQK,GSAAGTNDS,no signal,0 of 3,0 of 9
GFTLNSYGIS,VIRSDGRRTFYGDCVK,GRAAGTFDS,no signal,0 of 3,0 of 9
GATLNKYGIS,VIYSDGRRRFYGDSVK,GRAAGTFDS,1.4 µM,3 of 3,4 of 9
GFTLNSYGIS,VIYSDDRRTGYGDSVK,CRAAGTFDS,no signal,0 of 3,0 of 9
GFTLNSYGIS,VIYSDGRRTFLGDSMK,GRCAGTFDS,990 nM,3 of 3,1 of 9
KFTLNSYGIS,VIYSDGRRTLYGDSVK,GRAAGNFDS,no signal,0 of 3,1 of 9
GFTLNSYGIE,VIYIDGRRTFYGDSVK,GRAAGFFDS,no signal,0 of 3,1 of 9
GFTLNSYGQS,VIYSDGRRTFYGDMVK,GRAAGTYDS,no signal,0 of 3,0 of 9
GFSLNSYGIS,VIYSDGRRTFYGDSMK,GSAAGTFDS,100 nM,3 of 3,2 of 9
GFTLNSYGIS,VIYSDGRRTFYGDWVK,GRAAGRFDS,no signal,0 of 3,0 of 9
GFTLNRYGIS,VIYTDGRRTFYSDSVK,GRAAGTFDS,58 nM,3 of 3,2 of 9
GFHLNSYGIS,VIYSDGRRTFYGDSAK,GRAAGTFLS,240 nM,3 of 3,0 of 9
GFGLNSYGIS,VIYSAMRRTFYGDSVK,GRAAGTFDS,610 nM,1 of 3,2 of 9
GFTWNSYGIS,VLYSDGRRTFYGASVK,GRAAGTFDS,7.5 µM,1 of 3,0 of 9
HFTLNSYGFS,VIYSDGRRTFYGDSVK,GRAAVTFDS,8.2 µM,2 of 3,2 of 9
GFTLNSYGIS,VIYSDGRRTFYGDSVC,GRAAGTFPS,8.6 µM,1 of 3,0 of 9
GFTLNGYGIS,VIYSDGSRTFYGGSVK,GRAAGTFDS,6.9 µM,3 of 3,2 of 9
GFTLNSYGIS,VDCSDGRRTFYMDSVK,GRAAGTFDS,260 µM,1 of 3,3 of 9
GFTLNSPGIS,VIYSFGRRTFYGDSVK,GRAAGTFDS,no signal,0 of 3,2 of 9
GFTLNSYGIW,VITSDGRRTFYGDSVK,GRAVGTFDS,170 µM,1 of 3,4 of 9
GFTLNSYGIS,VIYSDGRRTFAGDSLK,GRAAGTSDS,no signal,0 of 3,0 of 9
GFTLNKYGIS,VIYSDGRFTFYGDSVK,GRAAGTFDS,34 µM,1 of 3,1 of 9
GFTLNSYGIS,KIYSDGRRTFYGDSVW,GRAAGTNDS,no signal,0 of 3,0 of 9
GFTLGSYGIS,VIYSDGRRTFYGDSEK,GRAAGTFDS,10 µM,1 of 3,0 of 9
VFTLCSYGIS,VIYSDGRRTFHGDSVK,GRAAGTFDS,74 µM,1 of 3,0 of 9
GFTLNSYGIS,VIYSTGRRTFYGDSYK,GRAAGTFNS,17 µM,2 of 3,1 of 9
GFTLNSQLIS,VIYSDGRRTFYGDSVK,GRAAGTFDS,no signal,0 of 3,1 of 9
GFTCNSYGIS,VIYSDGRNTQYGDSVK,GRAAGTFDS,no signal,0 of 3,3 of 9
GFTLNSYGIS,DIYSDGRRTFYGDSVK,GRSKGTFDS,6.3 µM,1 of 3,3 of 9
GFTLNSYGYS,VIYSDGRRTFYGDSVK,GRARGTFDS,270 nM,1 of 3,0 of 9
GFTLNSYGIS,VIYSDGRRTFYGDSVK,GRSWGEFDS,no signal,0 of 3,3 of 9
GFTLNSEGIS,IIYSDGRRTHYGDSVK,GRAAGTFDS,no signal,0 of 3,0 of 9
GFTLLSYFIS,VIYSDGRRTFYGDSVK,QRAAGTFDS,no signal,0 of 3,2 of 9
GFTLNSYGIT,VIYSDVRRTQYGDSVK,GRAAGTFDS,no signal,0 of 3,0 of 9

12 of these entries, quoted again:

CDR-H1,CDR-H2,CDR-H3,Kd,replicates with signal,empty controls
GFTLNSYGIS,VIYSDGRRTFYGDSVK,FPAAGTFMS,no signal,0 of 3,1 of 9
GFTLNSYGIS,VIYSQGRRTFYGDSVK,GRAASTFDS,6.6 µM,3 of 3,1 of 9
GFTLNSYGIS,QIYSDGRRTFMNDSVK,GRAAGTFDS,18 µM,2 of 3,4 of 9
GFTLNSYGIS,VMYSDGRRTFYFDMVK,GRAAGTFDS,no signal,0 of 3,0 of 9
GFTLNSYGIS,DIYSDGRRTFYGDSVK,GRSKGTFDS,6.3 µM,1 of 3,3 of 9
GFTLNSYGIS,VHYSDGRRTFYGDSQK,GRAAGTFDS,no signal,0 of 3,3 of 9
GFTLNSYGIS,VIYSDGRRTFIGDSPI,GRAAGTFDS,1.6 mM,1 of 3,7 of 9
GFTVNYYGIS,VISSDGRRTFYGDSVK,GRAAGTFDS,1.4 µM,1 of 3,2 of 9
GFTLNSYGIS,VIYKDGRRTFYGDHVK,GRAAGAFDS,57 µM,1 of 3,3 of 9
GFTLNSPGIS,VIYSFGRRTFYGDSVK,GRAAGTFDS,no signal,0 of 3,2 of 9
GFTLNSYFIS,VIYSDGRRTFGDDSVK,GRAAGTFDS,9.1 µM,2 of 3,3 of 9
GFTLNSYGIS,VIYSTGRRTFYGDSYK,GRAAGTFNS,17 µM,2 of 3,1 of 9

Nonspecific signal, from three strains lacking the peptide, appeared in 15% of pairings of library AAYL49, centred on 11 µM (5% of these signals below 680 nM); values are not corrected for it. The control count says in how many pairings with the empty strains this scFv gave a signal.

Values reported by Engelhart et al. 2022, doi:10.1038/s41597-022-01779-4 (FLAb copy).